Measured values as given in paper PMC4358366 (eLife, 2014).

Molecular target: T1, recombinant human Sirt3 (102–399) (human, UniProt Q9NTG7 102-399)
T1 construct: human Sirt3, NAD-dependent deacetylase, residues 102-399 of the 399 a.a. protein; Plasmid in pTrcHis 2C was a gift from Dr Eric Verdin; the tags are inferred from the vector and the nickel column; also called recombinant Sirt3; source: E. coli Rosetta, purified (nickel column, Superdex75 gel filtration)
T1 sequence (looked up): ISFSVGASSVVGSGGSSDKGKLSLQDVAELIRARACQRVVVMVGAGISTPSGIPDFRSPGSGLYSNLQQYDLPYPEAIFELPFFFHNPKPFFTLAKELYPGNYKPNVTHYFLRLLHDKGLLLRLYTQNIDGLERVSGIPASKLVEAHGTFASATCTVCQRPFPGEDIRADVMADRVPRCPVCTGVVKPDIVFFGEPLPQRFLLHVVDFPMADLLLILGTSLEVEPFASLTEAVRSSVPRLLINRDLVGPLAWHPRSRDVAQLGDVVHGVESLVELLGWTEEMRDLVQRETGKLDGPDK
Test: crystal structure; Sirt3 (102–399) with H3K4Cr (1–10) peptide, 1:20 protein/peptide; hanging drop, 291 K; 2.95 Å; six complexes in the asymmetric unit
Details: both partners purified

B1: H3K4Cr (1–10) peptide (peptide, UniProt P68431 2-11, looked up)
peptide: ARTKQTARKS
modifications: crotonyl-lysine at 4
notes: histone H3, residues 1-10, lysine-4 crotonylated; residues 2-8 (RTKQTAR) seen in the electron density; Synthesized on Rink-Amide MBHA resin, so a C-terminal amide is likely; also called H3K4Cr peptide; source: synthetic peptide
B1: binds.
